Reference: PubChem BioAssay (NCI)
Some of these compounds have results that are not shown, active ones among them.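 Results reflect a 48-hour exposure of cells in 96-well plates to compound at five concentrations. GI50 is the concentration that inhibits growth by half. The concentration for full growth arrest is given as TGI.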

How the values were obtained:
Assay in all cases: NCI anticancer screen, dose series, 48 h
786-0 renal = tested on: 786-0 renal
A498 renal = tested on: A498 renal
A549 NSCLC = tested on: A549 NSCLC
ACHN renal = tested on: ACHN renal
CAKI-1 renal = tested on: CAKI-1 renal
CCRF-CEM leukemia = tested on: CCRF-CEM leukemia
COLO 205 colon = tested on: COLO 205 colon
DU-145 prostate = tested on: DU-145 prostate
EKVX NSCLC = tested on: EKVX NSCLC
HCC-2998 colon = tested on: HCC-2998 colon
HCT-116 colon = tested on: HCT-116 colon
HCT-15 colon = tested on: HCT-15 colon
HL-60(TB) leukemia = tested on: HL-60(TB) leukemia
HOP-62 NSCLC = tested on: HOP-62 NSCLC
HOP-92 NSCLC = tested on: HOP-92 NSCLC
HS 578T breast = tested on: HS 578T breast
HT29 colon = tested on: HT29 colon
IGROV1 ovarian = tested on: IGROV1 ovarian
K-562 leukemia = tested on: K-562 leukemia
KM12 colon = tested on: KM12 colon
LOX IMVI melanoma = tested on: LOX IMVI melanoma
M14 melanoma = tested on: M14 melanoma
MALME-3M melanoma = tested on: MALME-3M melanoma
MCF7 breast = tested on: MCF7 breast
MDA-MB-231 breast = tested on: MDA-MB-231 breast
MDA-MB-435 = tested on: MDA-MB-435
MDA-N = tested on: MDA-N
MOLT-4 leukemia = tested on: MOLT-4 leukemia
NCI-H226 lung = tested on: NCI-H226 lung
NCI-H23 lung = tested on: NCI-H23 lung
NCI-H322M lung = tested on: NCI-H322M lung
NCI-H460 lung = tested on: NCI-H460 lung
NCI-H522 lung = tested on: NCI-H522 lung
NCI/ADR-RES ovarian = tested on: NCI/ADR-RES ovarian
OVCAR-3 ovarian = tested on: OVCAR-3 ovarian
OVCAR-4 ovarian = tested on: OVCAR-4 ovarian
OVCAR-5 ovarian = tested on: OVCAR-5 ovarian
OVCAR-8 ovarian = tested on: OVCAR-8 ovarian
PC-3 prostate = tested on: PC-3 prostate
RPMI-8226 leukemia = tested on: RPMI-8226 leukemia
RXF 393 renal = tested on: RXF 393 renal
SF-268 CNS = tested on: SF-268 CNS
SF-295 CNS = tested on: SF-295 CNS
SF-539 CNS = tested on: SF-539 CNS
SK-MEL-2 melanoma = tested on: SK-MEL-2 melanoma
SK-MEL-28 melanoma = tested on: SK-MEL-28 melanoma
SK-MEL-5 melanoma = tested on: SK-MEL-5 melanoma
SN12C renal = tested on: SN12C renal
SNB-19 CNS = tested on: SNB-19 CNS
SNB-75 CNS = tested on: SNB-75 CNS
SR leukemia = tested on: SR leukemia
SW-620 colon = tested on: SW-620 colon
T-47D breast = tested on: T-47D breast
TK-10 renal = tested on: TK-10 renal
U251 CNS = tested on: U251 CNS
UACC-257 melanoma = tested on: UACC-257 melanoma
UACC-62 melanoma = tested on: UACC-62 melanoma

Structure (SMILES): C/C=C\C(O)(C(=O)OC1CN2CCC1CC2)C1CCCC1 (centres undefined)
- GI50 (786-0 renal): > 100 µM
- TGI (786-0 renal): > 100 µM
- GI50 (A498 renal): > 100 µM
- TGI (A498 renal): > 100 µM
- GI50 (A549 NSCLC): > 100 µM
- TGI (A549 NSCLC): > 100 µM
- GI50 (ACHN renal): > 100 µM
- TGI (ACHN renal): > 100 µM
- GI50 (CAKI-1 renal): > 100 µM
- TGI (CAKI-1 renal): > 100 µM
- GI50 (CCRF-CEM leukemia): > 100 µM
- TGI (CCRF-CEM leukemia): > 100 µM
- GI50 (COLO 205 colon): > 100 µM
- TGI (COLO 205 colon): > 100 µM
- GI50 (DU-145 prostate): > 100 µM
- TGI (DU-145 prostate): > 100 µM
- GI50 (EKVX NSCLC): > 100 µM
- TGI (EKVX NSCLC): > 100 µM
- GI50 (HCC-2998 colon): > 100 µM
- TGI (HCC-2998 colon): > 100 µM
- GI50 (HCT-116 colon): > 100 µM
- TGI (HCT-116 colon): > 100 µM
- GI50 (HCT-15 colon): > 100 µM
- TGI (HCT-15 colon): > 100 µM
- GI50 (HL-60(TB) leukemia): > 100 µM
- TGI (HL-60(TB) leukemia): > 100 µM
- GI50 (HOP-62 NSCLC): > 100 µM
- TGI (HOP-62 NSCLC): > 100 µM
- GI50 (HOP-92 NSCLC): 49.1 µM
- TGI (HOP-92 NSCLC): > 100 µM
- GI50 (HS 578T breast): > 100 µM
- TGI (HS 578T breast): > 100 µM
- GI50 (HT29 colon): > 100 µM
- TGI (HT29 colon): > 100 µM
- GI50 (IGROV1 ovarian): > 100 µM
- TGI (IGROV1 ovarian): > 100 µM
- GI50 (K-562 leukemia): > 100 µM
- TGI (K-562 leukemia): > 100 µM
- GI50 (KM12 colon): > 100 µM
- TGI (KM12 colon): > 100 µM
- GI50 (LOX IMVI melanoma): > 100 µM
- TGI (LOX IMVI melanoma): > 100 µM
- GI50 (M14 melanoma): > 100 µM
- TGI (M14 melanoma): > 100 µM
- GI50 (MALME-3M melanoma): > 100 µM
- TGI (MALME-3M melanoma): > 100 µM
- GI50 (MCF7 breast): > 100 µM
- TGI (MCF7 breast): > 100 µM
- GI50 (MDA-MB-231 breast): > 100 µM
- TGI (MDA-MB-231 breast): > 100 µM
- GI50 (MDA-MB-435): > 100 µM
- TGI (MDA-MB-435): > 100 µM
- GI50 (MDA-N): > 100 µM
- TGI (MDA-N): > 100 µM
- GI50 (MOLT-4 leukemia): > 100 µM
- TGI (MOLT-4 leukemia): > 100 µM
- GI50 (NCI-H226 lung): > 100 µM
- TGI (NCI-H226 lung): > 100 µM
- GI50 (NCI-H23 lung): > 100 µM
- TGI (NCI-H23 lung): > 100 µM
- GI50 (NCI-H322M lung): > 100 µM
- TGI (NCI-H322M lung): > 100 µM
- GI50 (NCI-H460 lung): > 100 µM
- TGI (NCI-H460 lung): > 100 µM
- GI50 (NCI-H522 lung): > 100 µM
- TGI (NCI-H522 lung): > 100 µM
- GI50 (NCI/ADR-RES ovarian): > 100 µM
- TGI (NCI/ADR-RES ovarian): > 100 µM
- GI50 (OVCAR-3 ovarian): > 100 µM
- TGI (OVCAR-3 ovarian): > 100 µM
- GI50 (OVCAR-4 ovarian): > 100 µM
- TGI (OVCAR-4 ovarian): > 100 µM
- GI50 (OVCAR-5 ovarian): > 100 µM
- TGI (OVCAR-5 ovarian): > 100 µM
- GI50 (OVCAR-8 ovarian): > 100 µM
- TGI (OVCAR-8 ovarian): > 100 µM
- GI50 (PC-3 prostate): > 100 µM
- TGI (PC-3 prostate): > 100 µM
- GI50 (RPMI-8226 leukemia): > 100 µM
- TGI (RPMI-8226 leukemia): > 100 µM
- GI50 (RXF 393 renal): > 100 µM
- TGI (RXF 393 renal): > 100 µM
- GI50 (SF-268 CNS): > 100 µM
- TGI (SF-268 CNS): > 100 µM
- GI50 (SF-295 CNS): > 100 µM
- TGI (SF-295 CNS): > 100 µM
- GI50 (SF-539 CNS): > 100 µM
- TGI (SF-539 CNS): > 100 µM
- GI50 (SK-MEL-2 melanoma): > 100 µM
- TGI (SK-MEL-2 melanoma): > 100 µM
- GI50 (SK-MEL-28 melanoma): > 100 µM
- TGI (SK-MEL-28 melanoma): > 100 µM
- GI50 (SK-MEL-5 melanoma): > 100 µM
- TGI (SK-MEL-5 melanoma): > 100 µM
- GI50 (SN12C renal): > 100 µM
- TGI (SN12C renal): > 100 µM
- GI50 (SNB-19 CNS): 59.2 µM
- TGI (SNB-19 CNS): > 100 µM
- GI50 (SNB-75 CNS): 77.5 µM
- TGI (SNB-75 CNS): > 100 µM
- GI50 (SR leukemia): > 100 µM
- TGI (SR leukemia): > 100 µM
- GI50 (SW-620 colon): 45 µM
- TGI (SW-620 colon): > 100 µM
- GI50 (T-47D breast): > 100 µM
- TGI (T-47D breast): > 100 µM
- GI50 (TK-10 renal): > 100 µM
- TGI (TK-10 renal): > 100 µM
- GI50 (U251 CNS): > 100 µM
- TGI (U251 CNS): > 100 µM
- GI50 (UACC-257 melanoma): > 100 µM
- TGI (UACC-257 melanoma): > 100 µM
- GI50 (UACC-62 melanoma): > 100 µM
- TGI (UACC-62 melanoma): > 100 µM
